Source: patent EP0367895A1, “Pyrimidinyl-substituted hydroxyacids, lactones and esters and pharmaceutical compositions containing them” (SANDOZ AG, priority 1988, dated 1990)

Target: T1, 3-hydroxy-3-methylglutaryl coenzyme A (HMG-CoA) reductase (Rattus norvegicus, UniProt P51639)
T1 construct: In vitro microsomal assay of; from tissue; host or cells: Microsomes; it is liver according to own knowledge of EP 114 027
T1 sequence (P51639 1-887): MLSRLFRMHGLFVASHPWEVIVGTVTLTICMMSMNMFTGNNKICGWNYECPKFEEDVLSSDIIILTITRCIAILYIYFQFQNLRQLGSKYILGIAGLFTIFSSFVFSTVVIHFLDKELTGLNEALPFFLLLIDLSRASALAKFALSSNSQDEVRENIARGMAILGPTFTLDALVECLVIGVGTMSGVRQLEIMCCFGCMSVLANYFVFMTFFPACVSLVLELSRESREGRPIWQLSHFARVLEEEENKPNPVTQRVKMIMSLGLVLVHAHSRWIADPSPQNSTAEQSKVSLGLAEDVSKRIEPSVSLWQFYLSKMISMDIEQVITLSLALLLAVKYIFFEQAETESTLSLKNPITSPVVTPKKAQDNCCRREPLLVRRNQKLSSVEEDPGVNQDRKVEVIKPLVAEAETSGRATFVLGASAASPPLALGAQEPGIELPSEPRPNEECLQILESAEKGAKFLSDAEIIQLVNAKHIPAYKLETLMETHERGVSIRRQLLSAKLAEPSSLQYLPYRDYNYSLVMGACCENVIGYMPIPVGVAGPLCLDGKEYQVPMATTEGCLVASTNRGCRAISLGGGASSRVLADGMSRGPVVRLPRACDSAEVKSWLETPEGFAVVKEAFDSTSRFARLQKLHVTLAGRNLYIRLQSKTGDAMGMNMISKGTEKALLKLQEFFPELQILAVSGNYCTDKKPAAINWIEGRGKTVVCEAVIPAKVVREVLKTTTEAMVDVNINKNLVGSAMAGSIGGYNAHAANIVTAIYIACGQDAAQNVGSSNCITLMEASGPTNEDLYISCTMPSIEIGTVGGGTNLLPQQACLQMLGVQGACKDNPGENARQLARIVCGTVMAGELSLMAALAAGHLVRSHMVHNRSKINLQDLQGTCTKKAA
Assay: Test A: in vitro microsomal assay of HMG-CoA reductase inhibition (as described in EP 114 027)
Assay type: biochemical
Conditions: concentration calculated to produce a 50% inhibition of HMG-CoA reductase activity; tests run between 0.05 µM and 1000 µM; read-out: IC₅₀
Experimental: Test A. In vitro microsomal assay of 3-hydroxy-3-methylglutaryl coenzyme A (HMG-CoA) reductase inhibition: as described in EP 114 027:
IC₅₀ is the concentration of the test substance in the assay system calculated to produce a 50% inhibition of HMG-CoA reductase activity. The tests are run at concentrations of test substance between 0.05 µM and 1000 µM.

With Mevinolin [reference compound] the IC50 was 352 nM.
